Test results published in patent US10125112B2, “Modulators of the relaxin receptor 1” (The United States of America, as Represented by the …, priority 2012, dated 2018).

Experiments:
[1] = system: VEGF gene expression in THP1 cells; test: VEGF gene expression in THP1 cells (qRT-PCR); type: cell-based, human; conditions: 2 hours treatment, normalized to GAPDH
Text: This example illustrates the activation of VEGF expression in THP1 cells by several embodiments of the disclosure.
THP1 cells (human acute monocytic leukemia cell line) were used to analyze the stimulation of VEGF gene expression after treatment with relaxin or compounds. The VEGF stimulation in these cultured endometrial cells is a well-established property of relaxin.^19 This effect is most probably responsible for the observed angiogenic and neovascularization properties of relaxin in various settings.^20 400,000 THP1 cells (0.4 mL at 1×10^6 cells/mL) in test media (RPMI-1640 without phenol red, 0.5% FBS, Ix Pen/Strep, 0.05 mM of 2-mercaptoethanol) were seeded in each well on a 24-well plate. After 24 hours incubation at 37° C., 5% CO2, relaxin or compounds were added for 2 hours. The cells were harvested and RNA was extracted by the Trizol (Invitrogen, Carlsbad, Calif.) method according to manufacturers' instructions. cDNA was synthesized by using Verso cDNA kit (Thermo Scientific, Waltham, Mass.) according to manufacturer's protocol. Quantitative real time RT-PCR for VEGF and GAPDH gene expression was done using a Roche LightCycler 480 (Roche Diagnostics, Indianapolis, Ind.) with the appropriate set of primers and probes spanning different exons. The relative fold change in VEGF mRNA level was calculated by the comparative Ct (2-ΔΔ^Ct) method using GAPDH expression for normalization of RNA.
The results are set forth in Table 8 as relative VEGF gene expression relative to control.

[2] = ATP Cytotoxicity assay (ATPLite) in HEK293-RXFP1 cells; type: cell-based; conditions: human, inactive = Maximum response less than 30%, read-out: ATP Tox. EC50 (μM, Max. Resp.): EC50
RXFP1 = molecular target: T1, RXFP1 (Homo sapiens, UniProt Q9HBX9); test: RXFP1 cAMP assay in HEK293-RXFP1 cells (HTRF); type: cell-based
T1 construct: expressed in transfected cells
T1 sequence (Q9HBX9 1-757): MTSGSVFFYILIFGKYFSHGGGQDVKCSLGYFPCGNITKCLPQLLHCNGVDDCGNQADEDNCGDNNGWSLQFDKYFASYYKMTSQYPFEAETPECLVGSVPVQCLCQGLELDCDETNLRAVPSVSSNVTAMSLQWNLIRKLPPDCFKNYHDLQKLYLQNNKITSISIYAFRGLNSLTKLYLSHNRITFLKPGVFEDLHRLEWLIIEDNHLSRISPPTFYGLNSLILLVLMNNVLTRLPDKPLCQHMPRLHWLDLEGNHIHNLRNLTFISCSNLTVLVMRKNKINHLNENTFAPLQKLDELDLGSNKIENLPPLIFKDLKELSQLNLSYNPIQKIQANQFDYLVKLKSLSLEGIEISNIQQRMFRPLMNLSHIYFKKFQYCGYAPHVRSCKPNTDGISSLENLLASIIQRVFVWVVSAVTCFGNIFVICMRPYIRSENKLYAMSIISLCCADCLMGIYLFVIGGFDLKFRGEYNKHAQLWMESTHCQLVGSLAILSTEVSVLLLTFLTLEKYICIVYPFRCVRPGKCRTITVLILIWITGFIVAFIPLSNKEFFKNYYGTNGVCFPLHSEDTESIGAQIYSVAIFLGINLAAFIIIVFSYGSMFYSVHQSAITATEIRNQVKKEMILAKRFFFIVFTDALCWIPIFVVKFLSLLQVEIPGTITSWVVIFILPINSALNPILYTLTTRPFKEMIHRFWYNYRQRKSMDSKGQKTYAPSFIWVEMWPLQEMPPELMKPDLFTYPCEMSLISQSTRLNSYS

SMILES | Relative VEGF gene expression (control = 1.0) [1] | other results
O=C(Nc1cccc(S(=O)(=O)C(F)(F)F)c1)c1ccccc1NC(=O)c1ccccc1OCC(F)(F)F [Example 177, 2-(2,2,2-Trifluoroethoxy)-N-(2-((3-((trifluoromethyl)sulfonyl)phenyl)carbamoyl)phenyl)benzamide] | 1.3 | 
CCCCOc1ccccc1C(=O)Nc1ccccc1C(=O)Nc1cccc(S(=O)(=O)C(F)(F)F)c1 [Example 180] |  | EC50 at 72 h [2]: 59.3 µM
COc1ccccc1C(=O)Nc1ccccc1C(=O)Nc1cccc(S(=O)(=O)C(F)(F)F)c1 [Compound 159, 2-Methoxy-N-(2-((3-((trifluoromethyl)sulfonyl)phenyl)carbamoyl)phenyl)benzamide] | 1.4 | 
CCCCOc1ccccc1C(=O)Nc1ccccc1C(=O)Nc1cccc(S(=O)(=O)C(F)(F)F)c1 [Example 180, 2-Butoxy-N-(2-((3-((trifluoromethyl)sulfonyl)phenyl)carbamoyl)phenyl)benzamide] | 1.6 | 
CC(C)Oc1ccccc1C(=O)Nc1ccccc1C(=O)Nc1cccc(S(=O)(=O)C(F)(F)F)c1 [Example 178] |  | Emax (RXFP1; read-out: Max Response): 98%; Emax (RXFP1; read-out: RXFP1 AC50 (μM, Max. Resp.): Max. Resp.): 98%
CCOc1ccccc1C(=O)Nc1ccccc1C(=O)Nc1cccc(S(=O)(=O)C(F)(F)F)c1 [Example 174, 2-Ethoxy-N-(2-((3-((trifluoromethyl)sulfonyl)phenyl)carbamoyl)phenyl)benzamide] | 2.3 | 
CCOc1ccccc1-c1nc2ccccc2c2nc3ccc(C(F)(F)F)cc3n12 [Example 142] |  | Emax (RXFP1; percentage of the maximal receptor activation induced by high concentrations of forskolin, Tables 1-7, read-out: Max Response): 34%

Where two headings read alike, the source gives them in different places.
